## Antibody variant affinities, Ab-14 light chain, assay B

All variants were tested on one target, the spike HR2 peptide PDVDLGDISGINAS (SARS-CoV-2).

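These sequences belong to a second round, designed from the earlier measurements on random variants of the parent. Their group label is 14L_En_Gibbs (En: ensemble of fine-tuned language models; Gibbs: Gibbs sampling). In AlphaSeq, yeast of one mating type display the scFv and yeast of the other type display the target. Mating (16 h, 30 °C) was followed by selection of diploids and sequencing of their barcodes. A regression on co-assayed BCL2-family reference pairs converts the normalised counts of each replicate to an apparent Kd. There are six technical replicates.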

Parent: Ab-14, a human scFv built as VH, a (GGGGS)3 linker, VL. Only the CDRs of the light chain vary.
VH: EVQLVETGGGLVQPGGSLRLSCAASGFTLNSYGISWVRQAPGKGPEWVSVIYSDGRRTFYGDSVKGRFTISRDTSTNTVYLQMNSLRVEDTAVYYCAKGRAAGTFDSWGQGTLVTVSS
VL: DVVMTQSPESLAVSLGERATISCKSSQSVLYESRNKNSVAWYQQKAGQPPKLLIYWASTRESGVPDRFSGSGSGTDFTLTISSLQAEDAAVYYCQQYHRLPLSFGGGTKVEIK

The parent's light chain CDRs are KSSQSVLYESRNKNSVA, WASTRES, QQYHRLPLS; each variant's own CDRs replace them letter for letter.
The read-out is the apparent dissociation constant on a log10 scale (nM): the lower, the stronger.
"ND" means that the variant was in the library but no mating with the target was seen in that replicate; the authors take this as a sign of poor binding, and no number exists.

CDR-L1,CDR-L2,CDR-L3,"log10 Kd, replicates",empty controls
ALELFEYQIMKDLNNIA,NTNTRVN,QQYMRLPFM,0.13 / -0.18 / -0.23 / -0.39 / -0.19 / -0.15,1 of 18 (2.84)
MLVGPDEIEQHNWQSVA,SAEALAM,QQYFRLPLS,2.01 / ND / ND / 1.79 / ND / 1.23,0 of 18
KLYERGEESSKVDRSIA,EMSTRQE,QQYQRLPLS,2.02 / 1.46 / 1.44 / 0.93 / 1.45 / 1.40,1 of 18 (2.09)
VVKNMMNQMGTQHQNIA,NGAIKAD,QQYQRLPLW,0.18 / 0.03 / 0.16 / -0.21 / -0.10 / -0.04,1 of 18 (2.45)
SMSWAHFNGDNWMNSIA,DATHLAY,QQYSRLPIT,0.97 / 0.89 / 1.28 / 0.65 / 0.80 / 1.05,1 of 18 (2.12)
HVSSMLMAGGGIINSVA,GNKLLER,QQYMRLPLS,0.50 / 0.49 / 0.38 / 0.17 / 0.32 / 0.66,1 of 18 (3.19)
NLGFVDDNDNQMMMSVA,DANTVGE,QQYNRLPLA,1.92 / 1.48 / 1.10 / 1.57 / 1.88 / 1.52,0 of 18
RYQMDDQEGKTARNNIA,DGAEVYR,QQYARLPLT,ND / ND / ND / ND / ND / ND,0 of 18
AISMHAFYGQRDENGIA,GADVRAK,QQYWRLPLT,0.86 / 0.46 / 0.46 / 0.56 / 0.60 / 0.75,4 of 18 (2.52)
RIDSVWEMLTNRAQNVA,NATTVIA,QQYMRLPLV,0.47 / 0.14 / -0.01 / 0.31 / 0.29 / 0.55,0 of 18
SLTSHEEEIEGAEASVA,EAMMLES,QQYHRLPLM,1.26 / 1.80 / 1.48 / 1.78 / 2.26 / 1.50,1 of 18 (3.24)
KLNHLSFVHDREKNNVA,DLNVKAS,QQYDRLPLV,0.63 / 0.31 / 0.34 / 0.28 / 0.26 / 0.43,0 of 18
HFDQTRQEDIQDKNSVA,EGSVVIS,QQYSKLPLS,1.16 / 1.37 / 1.07 / 1.39 / 1.47 / 1.42,0 of 18
KLKLSNSFSLRGTRAIA,DGSTRAH,QQYHRLPLT,0.51 / 0.40 / 0.46 / 0.69 / 0.25 / 0.77,0 of 18
MVSMMPNEPTRDSNAIA,DHSQRNT,QQYDRLPLS,0.23 / 0.84 / 1.11 / 0.89 / 1.30 / 1.03,0 of 18
QLEVFPLQAGSTMQAIA,DASHRTP,QQYSRLPLV,0.68 / 0.88 / 0.49 / 1.24 / 0.98 / 0.77,1 of 18 (3.23)
QIMEEQSMRTEGNWNIA,QGEQKVH,QQYNRLPLA,ND / 1.87 / ND / 1.88 / ND / ND,0 of 18
TVKALLEMFAQDKHSVA,EAVERAS,QQYHRLPLG,1.39 / 1.16 / 0.79 / 1.29 / 1.31 / 1.35,1 of 18 (2.77)
ILEENSDDITEKQNSIA,ETQMVYS,QQYHRLPLA,0.98 / 1.42 / 1.80 / 1.07 / 1.14 / 1.65,0 of 18
KIAEQIMHVYIGANAIA,NATVRSA,QQYLRLPLM,ND / 2.29 / 2.65 / ND / 2.41 / 1.86,1 of 18 (2.20)
KLNQDPVLKTNINNSVA,DHSEVVQ,QQYFHLPLQ,1.50 / 0.93 / 0.21 / 0.69 / 0.65 / 0.94,0 of 18
HVSSMDMNDGGIKKSVA,DMKITER,QQYMRLPLS,0.40 / 0.24 / 0.02 / 0.17 / -0.17 / -0.20,0 of 18
HIDWLNRGETLKKDDIA,NATHREQ,QQYFHLPLV,0.69 / 0.82 / 0.51 / 0.66 / 0.37 / 0.75,2 of 18 (3.04)
KMTTNLEHQASRKNSIA,EADMVAA,QDYMRLPLI,0.61 / 0.76 / 0.95 / 0.89 / 0.50 / 1.08,1 of 18 (2.78)
HVEHDWLESNATMKAVA,NGATLAD,QQYGRLPLS,0.70 / 0.61 / 0.30 / 0.48 / 0.54 / 0.60,1 of 18 (2.85)
FMEMDFQENSGRGSSIA,SEEVKTR,QHYGRLPLS,ND / ND / ND / ND / ND / ND,0 of 18
VLPDPMLMFEMQYNSIA,EGVQLME,QQYERLPLT,ND / 1.64 / ND / 1.43 / ND / 2.58,0 of 18
VMFMGLYWNNDETYAIA,DVTMKEK,QQYHRLPLM,ND / ND / ND / 1.90 / ND / ND,0 of 18
KLTHLSFVHDRMKNNVA,DLNRKAA,QQYNRLPLT,1.02 / 0.88 / 0.82 / 0.42 / 0.30 / 0.86,0 of 18
KLYDEAFNRVGTATNIA,EKEISLQ,QQYDRLPLS,1.80 / 0.82 / 0.84 / 2.06 / 0.94 / 1.92,0 of 18
QINHQGLSANLNNRNVA,AKNLRVD,QQYNRLPLS,0.87 / 0.43 / 0.41 / 0.48 / 0.41 / 0.61,1 of 18 (2.23)
RFDLWQLESNMTEKSIA,SASNREQ,QQYARLPLF,1.00 / 1.17 / 1.23 / 0.79 / 1.06 / 1.08,2 of 18 (2.58)

The first 3 entries again:

| CDR-L1 | CDR-L2 | CDR-L3 | log10 Kd, replicates | empty controls |
|---|---|---|---|---|
| ALELFEYQIMKDLNNIA | NTNTRVN | QQYMRLPFM | 0.13 / -0.18 / -0.23 / -0.39 / -0.19 / -0.15 | 1 of 18 (2.84) |
| MLVGPDEIEQHNWQSVA | SAEALAM | QQYFRLPLS | 2.01 / ND / ND / 1.79 / ND / 1.23 | 0 of 18 |
| KLYERGEESSKVDRSIA | EMSTRQE | QQYQRLPLS | 2.02 / 1.46 / 1.44 / 0.93 / 1.45 / 1.40 | 1 of 18 (2.09) |

A sequence measured in both rounds can read differently, since the two assays cover different ranges.
Three control strains display no target. For all light chain designs, 4% of the pairings with them gave a signal, with a median of 2.64 and one signal in twenty below 1.59, so weak values seen in few replicates may be background. Also given: how often the same scFv was detected with the empty control strains, with their mean in brackets.
Of ten entries with the parent sequence, four were seen in most replicates (averages 0.34 to 2.37), three in one and three in none, so single entries are noisy.
The authors' rule: three or more of the six replicates give a measured affinity, fewer mean a poor binder.

Values reported by Li et al. 2023, doi:10.1038/s41467-023-39022-2 (FLAb copy).